Results reported in ChEMBL document CHEMBL3286196 (J Med Chem, 2014).
pIC50: −log10 of the molar value.

Amino acid sequences for entries named in this document (tags omitted). A change or cut given only in a name is not applied to a line headed by its entry. Chains listed by the source or under a name are the forms on record and can include a tag or linker. Residues count along the entry.
UniProt Q16881, whole entry: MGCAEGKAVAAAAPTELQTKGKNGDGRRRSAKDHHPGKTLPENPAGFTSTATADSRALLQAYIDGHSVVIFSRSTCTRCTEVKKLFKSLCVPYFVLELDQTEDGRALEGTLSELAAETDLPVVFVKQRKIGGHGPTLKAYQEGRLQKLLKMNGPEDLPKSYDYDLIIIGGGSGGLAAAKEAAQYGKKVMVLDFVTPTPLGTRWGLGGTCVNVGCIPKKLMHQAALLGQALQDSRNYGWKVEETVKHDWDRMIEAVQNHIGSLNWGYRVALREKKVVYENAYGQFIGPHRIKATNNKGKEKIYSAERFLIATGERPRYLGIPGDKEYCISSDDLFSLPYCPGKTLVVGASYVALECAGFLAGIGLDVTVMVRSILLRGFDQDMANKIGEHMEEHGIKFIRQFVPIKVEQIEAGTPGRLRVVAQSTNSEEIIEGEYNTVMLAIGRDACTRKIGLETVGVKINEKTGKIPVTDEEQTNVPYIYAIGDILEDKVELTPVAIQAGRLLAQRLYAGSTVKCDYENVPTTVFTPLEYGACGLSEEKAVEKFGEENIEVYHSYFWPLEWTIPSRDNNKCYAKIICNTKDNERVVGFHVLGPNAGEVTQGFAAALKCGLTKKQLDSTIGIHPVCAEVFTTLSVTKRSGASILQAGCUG
UniProt Q9NNW7, 37-524 limits assumed: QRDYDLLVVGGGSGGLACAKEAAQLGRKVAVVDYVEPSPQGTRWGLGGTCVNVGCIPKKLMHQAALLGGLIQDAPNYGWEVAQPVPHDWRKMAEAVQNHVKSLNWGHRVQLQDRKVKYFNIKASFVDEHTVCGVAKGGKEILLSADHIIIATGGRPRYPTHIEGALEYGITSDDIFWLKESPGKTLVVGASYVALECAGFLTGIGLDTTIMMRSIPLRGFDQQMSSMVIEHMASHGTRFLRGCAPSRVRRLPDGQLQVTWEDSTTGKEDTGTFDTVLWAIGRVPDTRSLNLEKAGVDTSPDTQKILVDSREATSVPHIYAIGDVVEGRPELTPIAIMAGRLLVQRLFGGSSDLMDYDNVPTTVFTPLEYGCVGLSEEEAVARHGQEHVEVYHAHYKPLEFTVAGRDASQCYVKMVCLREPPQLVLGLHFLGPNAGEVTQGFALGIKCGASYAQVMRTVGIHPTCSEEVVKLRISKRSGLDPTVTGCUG
UniProt Q86VQ6, whole entry: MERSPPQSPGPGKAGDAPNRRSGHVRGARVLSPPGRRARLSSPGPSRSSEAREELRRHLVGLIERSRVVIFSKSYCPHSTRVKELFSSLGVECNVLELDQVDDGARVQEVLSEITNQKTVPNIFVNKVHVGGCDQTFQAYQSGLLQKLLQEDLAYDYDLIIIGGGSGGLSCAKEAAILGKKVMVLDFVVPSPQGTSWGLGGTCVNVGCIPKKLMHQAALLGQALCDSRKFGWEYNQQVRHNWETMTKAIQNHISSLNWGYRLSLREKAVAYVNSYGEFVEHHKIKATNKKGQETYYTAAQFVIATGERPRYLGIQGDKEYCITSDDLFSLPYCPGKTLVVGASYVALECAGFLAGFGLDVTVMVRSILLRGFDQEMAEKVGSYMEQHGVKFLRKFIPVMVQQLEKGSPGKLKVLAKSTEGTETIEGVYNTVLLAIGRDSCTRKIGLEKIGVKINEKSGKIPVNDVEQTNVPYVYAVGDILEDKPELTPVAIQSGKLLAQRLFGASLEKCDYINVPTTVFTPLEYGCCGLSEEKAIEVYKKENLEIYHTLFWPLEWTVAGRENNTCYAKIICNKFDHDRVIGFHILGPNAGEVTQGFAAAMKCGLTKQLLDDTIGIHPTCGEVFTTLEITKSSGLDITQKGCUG
UniProt P70619: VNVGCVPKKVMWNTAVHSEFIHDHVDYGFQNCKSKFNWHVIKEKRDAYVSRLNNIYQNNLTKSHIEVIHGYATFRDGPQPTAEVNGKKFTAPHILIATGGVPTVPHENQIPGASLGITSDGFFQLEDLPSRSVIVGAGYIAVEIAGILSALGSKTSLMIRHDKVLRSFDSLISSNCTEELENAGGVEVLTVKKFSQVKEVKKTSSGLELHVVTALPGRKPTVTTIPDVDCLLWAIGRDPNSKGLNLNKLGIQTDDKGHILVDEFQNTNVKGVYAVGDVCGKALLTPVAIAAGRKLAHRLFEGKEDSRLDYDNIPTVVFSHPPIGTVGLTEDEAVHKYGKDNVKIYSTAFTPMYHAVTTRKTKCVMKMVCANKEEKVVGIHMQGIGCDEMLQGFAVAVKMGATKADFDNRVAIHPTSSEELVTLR
UniProt O89049, with tags, fused parts or gaps U498C: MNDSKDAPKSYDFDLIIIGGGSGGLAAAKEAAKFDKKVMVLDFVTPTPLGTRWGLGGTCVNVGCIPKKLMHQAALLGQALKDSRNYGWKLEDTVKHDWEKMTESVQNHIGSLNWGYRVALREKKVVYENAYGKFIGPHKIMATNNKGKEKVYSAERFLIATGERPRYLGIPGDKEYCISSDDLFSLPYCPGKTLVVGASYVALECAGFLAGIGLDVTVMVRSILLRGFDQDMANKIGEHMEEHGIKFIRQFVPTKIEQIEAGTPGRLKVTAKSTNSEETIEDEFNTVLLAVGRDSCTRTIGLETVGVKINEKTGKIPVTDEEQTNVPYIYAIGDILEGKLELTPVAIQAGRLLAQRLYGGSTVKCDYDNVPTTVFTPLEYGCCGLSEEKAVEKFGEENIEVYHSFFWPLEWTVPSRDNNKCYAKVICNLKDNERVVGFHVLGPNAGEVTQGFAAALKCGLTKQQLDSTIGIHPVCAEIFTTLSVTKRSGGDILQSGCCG

How the values were obtained:
HeLa = assay: Cytotoxicity against human HeLa cells assessed as inhibition of proliferation after 48 hrs by MTT assay
HL-60 [1] = assay: Cytotoxicity against human HL60 cells assessed as inhibition of proliferation after 72 hrs by MTT assay
HepG2 = assay: Cytotoxicity against human HepG2 cells assessed as inhibition of proliferation after 48 hrs by MTT assay
[2] = Cytotoxicity against human […] cells assessed as inhibition of proliferation after 48 hrs by MTT assay
HL-60 [3] = assay: Cytotoxicity against human HL60 cells assessed as inhibition of proliferation after 48 hrs by MTT assay
Thioredoxin reductase = Thioredoxin reductase (Homo sapiens, UniProt Q16881+Q9NNW7+Q86VQ6); assay: Inhibition of human TrxR activity in human HeLa cell lysate after 12 hrs by insulin reduction assay
Glutathione reductase = Glutathione reductase (Rattus norvegicus, UniProt P70619); assay: Inhibition of rat recombinant glutathione reductase after 30 mins by DTNB assay
HEK-293T = assay: Cytotoxicity against human HEK293T cells assessed as cell viability after 48 hrs by MTT assay
[4] = Inhibition of NADPH-reduced rat recombinant wild type TrxR after 30 mins by DTNB assay
[5] = molecular target: Thioredoxin reductase 1, cytoplasmic (Rattus norvegicus, UniProt O89049); assay: Inhibition of NADPH-reduced rat recombinant TrxR1 U498C mutant after 30 mins by DTNB assay
[6] = Cytotoxicity against human L02 cells assessed as cell viability after 48 hrs by MTT assay

Row | Structure (SMILES) | pIC50 (HeLa) | pIC50 (HL-60 [1]) | pIC50 (HepG2) | pIC50 [2] | pIC50 (HL-60 [3]) | pIC50 (Thioredoxin reductase) | pIC50 (Glutathione reductase) | pIC50 (HEK-293T) | pIC50 [4] | pIC50 [5] | pIC50 [6]
1 | CC(=O)Nc1ccc([As]2SCCS2)cc1 | < 5.00 | 5.70 | < 5.00 | 5.05 | 5.60 | – | – | – | – | – | –
2 | Nc1ccc([As]=O)cc1 (configuration not stated) | 5.11 | 5.29 | < 5.00 | 5.03 | 5.21 | 5.40 | – | – | – | – | –
3 | Nc1ccc([As]2SCCCS2)cc1 | 5.47 | 6.22 | < 5.00 | 5.55 | 6.15 | 5.85 | < 5.00 | 5.57 | 7.48 | < 5.00 | 4.99
4 | CC(=O)Nc1ccc([As]2SCCCS2)cc1 | 5.34 | 6.15 | < 5.00 | 5.47 | 6.10 | – | – | – | – | – | –
5 | Nc1ccc([As]2SCCS2)cc1 | 5.21 | 5.77 | < 5.00 | 5.00 | 5.60 | – | – | – | – | – | –
